# From ChEMBL document CHEMBL1131586, “New antipsychotic agents with serotonin and dopamine antagonist properties based on a pyrrolo[2,1-b][1,3]benzothiazepine structure” (J Med Chem, 1998)
# Protein sequences, listed by entry. Tags and fused reporters are not part of them. Lines headed by an entry give the natural chain unless they say otherwise; changes in a name come on top.
# UniProt P18901, whole entry: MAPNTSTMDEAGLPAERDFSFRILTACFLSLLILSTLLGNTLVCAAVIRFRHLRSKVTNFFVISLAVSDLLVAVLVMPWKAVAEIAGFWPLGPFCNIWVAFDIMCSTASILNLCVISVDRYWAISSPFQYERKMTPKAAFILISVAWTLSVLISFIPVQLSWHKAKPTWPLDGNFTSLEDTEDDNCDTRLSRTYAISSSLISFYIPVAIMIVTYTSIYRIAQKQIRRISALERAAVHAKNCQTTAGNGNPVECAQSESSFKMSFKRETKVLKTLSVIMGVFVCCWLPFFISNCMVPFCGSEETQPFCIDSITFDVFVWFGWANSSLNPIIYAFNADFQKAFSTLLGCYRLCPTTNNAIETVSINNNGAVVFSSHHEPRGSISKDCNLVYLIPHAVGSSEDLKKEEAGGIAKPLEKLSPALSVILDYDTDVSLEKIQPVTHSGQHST
# UniProt P30994: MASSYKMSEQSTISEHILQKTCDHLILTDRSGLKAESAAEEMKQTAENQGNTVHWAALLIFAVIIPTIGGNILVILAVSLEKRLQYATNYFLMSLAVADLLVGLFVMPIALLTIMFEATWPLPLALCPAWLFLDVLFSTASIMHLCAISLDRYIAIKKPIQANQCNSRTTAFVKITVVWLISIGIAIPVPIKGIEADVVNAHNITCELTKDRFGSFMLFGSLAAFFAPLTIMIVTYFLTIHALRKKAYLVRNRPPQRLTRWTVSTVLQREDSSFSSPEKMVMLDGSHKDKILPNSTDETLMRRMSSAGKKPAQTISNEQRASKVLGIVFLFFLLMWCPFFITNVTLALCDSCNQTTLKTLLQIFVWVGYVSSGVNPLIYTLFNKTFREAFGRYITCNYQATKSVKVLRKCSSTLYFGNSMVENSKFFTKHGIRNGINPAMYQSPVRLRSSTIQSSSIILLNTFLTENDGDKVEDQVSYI
# UniProt P08909: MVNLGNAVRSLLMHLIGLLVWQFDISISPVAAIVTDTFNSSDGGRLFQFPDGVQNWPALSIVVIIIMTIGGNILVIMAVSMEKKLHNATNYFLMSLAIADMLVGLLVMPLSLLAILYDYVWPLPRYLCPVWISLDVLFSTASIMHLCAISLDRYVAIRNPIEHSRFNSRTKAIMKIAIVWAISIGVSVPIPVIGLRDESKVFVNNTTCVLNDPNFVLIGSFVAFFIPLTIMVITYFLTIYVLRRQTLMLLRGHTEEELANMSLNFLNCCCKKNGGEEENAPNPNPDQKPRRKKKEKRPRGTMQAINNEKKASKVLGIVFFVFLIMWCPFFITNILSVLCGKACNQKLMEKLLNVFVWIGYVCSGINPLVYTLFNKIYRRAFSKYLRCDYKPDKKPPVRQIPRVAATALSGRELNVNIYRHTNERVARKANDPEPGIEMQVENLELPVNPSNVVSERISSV
# UniProt P14842: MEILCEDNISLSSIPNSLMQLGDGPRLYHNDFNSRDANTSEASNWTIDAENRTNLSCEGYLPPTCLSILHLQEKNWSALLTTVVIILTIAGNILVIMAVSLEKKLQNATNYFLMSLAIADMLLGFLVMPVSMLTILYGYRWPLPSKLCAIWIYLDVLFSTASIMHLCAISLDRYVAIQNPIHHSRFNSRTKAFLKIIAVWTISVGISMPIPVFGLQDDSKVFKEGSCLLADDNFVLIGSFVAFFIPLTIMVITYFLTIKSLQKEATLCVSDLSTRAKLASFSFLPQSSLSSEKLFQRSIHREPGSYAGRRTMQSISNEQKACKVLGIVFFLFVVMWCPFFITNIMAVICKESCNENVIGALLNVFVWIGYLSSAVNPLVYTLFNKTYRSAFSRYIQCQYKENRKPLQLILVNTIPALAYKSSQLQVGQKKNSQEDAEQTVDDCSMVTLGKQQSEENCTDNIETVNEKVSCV
# How the values were obtained:
# D(1A) dopamine receptor = D(1A) dopamine receptor (Rattus norvegicus, UniProt P18901)
# [1] = molecular target: Serotonin 2 (5-HT2) receptor (Rattus norvegicus, UniProt P30994+P08909+P14842)
Structure (SMILES),pKi (D(1A) dopamine receptor),Log Ki [1]
CN1CCN(C2Cn3cccc3Sc3ccc(Cl)cc32)CC1 (racemic),7.60,-8.9
CN1CCN(C2Cn3cccc3Sc3ccc(Cl)cc32)CC1 (stereo in doubt; (+)3b),–,-8.8
CN1CCN(C2Cn3cccc3Sc3ccc(Cl)cc32)CC1 (stereo in doubt; (-)3b),7.70,-8.7

# pKi: −log10 of the molar value.
